Holding throughout (format): functional, cell-based
One test relates to PC-3. Nature of the test: Antiproliferative activity against human prostate tumor cell line PC3.
A further test concerns HUVEC. Description: Antiproliferative activity against LSGS stimulated HUVEC. To be noted: Homo sapiens.
A further test relates to T47D. Nature of the test: Antiproliferative activity against human breast tumor cell line T47D.
In a further test the test system is LoVo. Description: Antiproliferative activity against human colon tumor cell line LoVo.
The subject of another test is A-375. Description: Antiproliferative activity against human melanoma tumor cell line A375.
The subject of a further test is ASPC1. Nature of the test: Antiproliferative activity against human pancreatic tumor cell line AsPC1.
Another test relates to NCI-H460. Nature of the test: Antiproliferative activity against human lung tumor cell line H460.

Structures are written as SMILES.

For orientation: IC50 means the point on the concentration scale where inhibition reaches its midpoint. On to `COc1cccc(Nc2[nH]nc3c2Cc2cc(OC)c(OC)cc2-3)c1`, for which, in the test on PC-3, the midpoint of inhibition, the IC50, lay at 10 nM.

As to `COc1cc2c(cc1OC)-c1n[nH]c(Nc3cccc(Cl)c3)c1C2`, the IC50 in the test with HUVEC stood at 1730 nM; in the test with T47D, 30 nM; in the test on LoVo, 0.012 µM; with PC-3 it was 48 nM; in the test with A-375 it was 1580 nM; in the test on ASPC1, 427 nM.

As for `COc1cc2c(cc1OC)-c1n[nH]c(Nc3cccc(C)c3)c1C2`, the IC50 with PC-3 is 12 nM.

In the case of `COc1ccc2c(c1)-c1n[nH]c(Nc3ccccc3)c1C2`, the IC50 worked out at 15 nM in the test on HUVEC, 9.95 µM with NCI-H460 and 10.5 µM with LoVo.
